The entries are a selection whose mix differs from that of the whole data set. The source made the active and inactive calls.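 How the source made its calls: active means inhibition above its plate's cutoff, the mean of tested wells on that plate plus 3 SD (cut at about 29% in these data); inactive means the rest.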
The compounds below were run against Melanocortin receptor 4 (Homo sapiens) (UniProt P32245) (assay: MC4R antagonists of cAMP signaling, primary screen, cell-based, TR-FRET, antagonist arm of biased-ligand search (AID 540295;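 further: 0% = Melanotan II alone and 100% = Melanotan II plus saturating MCL0020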)). Settings: MC4R-expressing cells, MTII-stimulated cAMP, LANCE TR-FRET; at 6.5 µM; stronger effect = higher value.

Protein sequences, listed by entry. Tags and fused reporters are not part of them.
UniProt P32245, whole entry: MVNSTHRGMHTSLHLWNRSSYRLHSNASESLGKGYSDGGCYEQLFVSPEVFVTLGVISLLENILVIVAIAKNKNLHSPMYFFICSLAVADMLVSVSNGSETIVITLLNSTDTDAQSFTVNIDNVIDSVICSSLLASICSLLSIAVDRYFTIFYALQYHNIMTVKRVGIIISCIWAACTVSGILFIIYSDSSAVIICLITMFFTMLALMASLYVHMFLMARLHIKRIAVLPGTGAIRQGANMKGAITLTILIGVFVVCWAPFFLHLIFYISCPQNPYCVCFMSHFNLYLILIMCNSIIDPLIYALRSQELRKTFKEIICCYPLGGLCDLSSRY

Row | SMILES | inhibition
1 | Cc1ccc(C(=O)OC2CN3CCC2CC3)cc1 (configuration not stated) | inactive: 3.27%
2 | COc1ccc(OP(C)(=O)Nc2ccccn2)cc1 (configuration not stated) | inactive: 11.7%

Source: PubChem BioAssay AID540295 (The Scripps Research Institute Molecular Screening Center, 2011)
